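Cultured in 96-well plates, cells were exposed to test compound for 48 hours across five concentrations. GI50 marks 50% less growth. The concentration for full growth arrest is given as TGI.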
Columns and labels:
Test in all cases: growth of human tumour cells (NCI), 48 h
BT-549 breast = system: BT-549 breast
HOP-62 NSCLC = system: HOP-62 NSCLC
OVCAR-3 ovarian = system: OVCAR-3 ovarian
HCC-2998 colon = system: HCC-2998 colon
MALME-3M melanoma = system: MALME-3M melanoma
MDA-MB-435 = system: MDA-MB-435
RXF 393 renal = system: RXF 393 renal
DU-145 prostate = system: DU-145 prostate
SK-MEL-5 melanoma = system: SK-MEL-5 melanoma
HOP-92 NSCLC = system: HOP-92 NSCLC
SF-295 CNS = system: SF-295 CNS
M14 melanoma = system: M14 melanoma
IGROV1 ovarian = system: IGROV1 ovarian
SR leukemia = system: SR leukemia
T-47D breast = system: T-47D breast
SW-620 colon = system: SW-620 colon
SK-OV-3 ovarian = system: SK-OV-3 ovarian
SNB-19 CNS = system: SNB-19 CNS
SK-MEL-28 melanoma = system: SK-MEL-28 melanoma
HL-60(TB) leukemia = system: HL-60(TB) leukemia
HCT-15 colon = system: HCT-15 colon
NCI/ADR-RES ovarian = system: NCI/ADR-RES ovarian
UACC-62 melanoma = system: UACC-62 melanoma
OVCAR-5 ovarian = system: OVCAR-5 ovarian
U251 CNS = system: U251 CNS
UACC-257 melanoma = system: UACC-257 melanoma
MCF7 breast = system: MCF7 breast
A549 NSCLC = system: A549 NSCLC
LOX IMVI melanoma = system: LOX IMVI melanoma
KM12 colon = system: KM12 colon
NCI-H460 lung = system: NCI-H460 lung
OVCAR-8 ovarian = system: OVCAR-8 ovarian
786-0 renal = system: 786-0 renal
ACHN renal = system: ACHN renal
SF-539 CNS = system: SF-539 CNS
NCI-H23 lung = system: NCI-H23 lung
MOLT-4 leukemia = system: MOLT-4 leukemia
SF-268 CNS = system: SF-268 CNS
NCI-H522 lung = system: NCI-H522 lung
NCI-H322M lung = system: NCI-H322M lung
TK-10 renal = system: TK-10 renal
CCRF-CEM leukemia = system: CCRF-CEM leukemia
NCI-H226 lung = system: NCI-H226 lung
PC-3 prostate = system: PC-3 prostate
HT29 colon = system: HT29 colon
UO-31 renal = system: UO-31 renal
K-562 leukemia = system: K-562 leukemia
MDA-MB-231 breast = system: MDA-MB-231 breast
SN12C renal = system: SN12C renal
OVCAR-4 ovarian = system: OVCAR-4 ovarian
EKVX NSCLC = system: EKVX NSCLC
RPMI-8226 leukemia = system: RPMI-8226 leukemia
SK-MEL-2 melanoma = system: SK-MEL-2 melanoma
SNB-75 CNS = system: SNB-75 CNS
CAKI-1 renal = system: CAKI-1 renal

O=c1ccc(Oc2ccc([N+](=O)[O-])cc2[N+](=O)[O-])nn1-c1ccc([N+](=O)[O-])cc1[N+](=O)[O-]
GI50 (BT-549 breast): 1570 nM | TGI (BT-549 breast): 2990 nM | GI50 (HOP-62 NSCLC): 1590 nM | TGI (HOP-62 NSCLC): 3.37 µM | GI50 (OVCAR-3 ovarian): 1690 nM | TGI (OVCAR-3 ovarian): 3.05 µM | GI50 (HCC-2998 colon): 1820 nM | TGI (HCC-2998 colon): 3.39 µM | GI50 (MALME-3M melanoma): 1680 nM | TGI (MALME-3M melanoma): 3.45 µM | GI50 (MDA-MB-435): 1720 nM | TGI (MDA-MB-435): 3.44 µM | GI50 (RXF 393 renal): 1880 nM | TGI (RXF 393 renal): 3.42 µM | GI50 (DU-145 prostate): 1710 nM | TGI (DU-145 prostate): 3.1 µM | GI50 (SK-MEL-5 melanoma): 1970 nM | TGI (SK-MEL-5 melanoma): 3.8 µM | GI50 (HOP-92 NSCLC): 1890 nM | TGI (HOP-92 NSCLC): 3.74 µM | GI50 (SF-295 CNS): 2930 nM | TGI (SF-295 CNS): 10.3 µM | GI50 (M14 melanoma): 1710 nM | TGI (M14 melanoma): 3.43 µM | GI50 (IGROV1 ovarian): 1940 nM | TGI (IGROV1 ovarian): 4.05 µM | GI50 (SR leukemia): 2010 nM | TGI (SR leukemia): 6.6 µM | GI50 (T-47D breast): 2170 nM | TGI (T-47D breast): 5.77 µM | GI50 (SW-620 colon): 2350 nM | TGI (SW-620 colon): 6.35 µM | GI50 (SK-OV-3 ovarian): 8.71 µM | TGI (SK-OV-3 ovarian): 22.2 µM | GI50 (SNB-19 CNS): 1900 nM | TGI (SNB-19 CNS): 3.5 µM | GI50 (SK-MEL-28 melanoma): 1880 nM | TGI (SK-MEL-28 melanoma): 3.52 µM | GI50 (HL-60(TB) leukemia): 1430 nM | TGI (HL-60(TB) leukemia): 4.29 µM | GI50 (HCT-15 colon): 1630 nM | TGI (HCT-15 colon): 3.18 µM | GI50 (NCI/ADR-RES ovarian): 1820 nM | TGI (NCI/ADR-RES ovarian): 3.46 µM | GI50 (UACC-62 melanoma): 1710 nM | TGI (UACC-62 melanoma): 3.38 µM | GI50 (OVCAR-5 ovarian): 1870 nM | TGI (OVCAR-5 ovarian): 3.87 µM | GI50 (U251 CNS): 1820 nM | TGI (U251 CNS): 3.44 µM | GI50 (UACC-257 melanoma): 1830 nM | TGI (UACC-257 melanoma): 3.59 µM | GI50 (MCF7 breast): 1630 nM | TGI (MCF7 breast): 3.88 µM | GI50 (A549 NSCLC): 8.28 µM | TGI (A549 NSCLC): 25.7 µM | GI50 (LOX IMVI melanoma): 1510 nM | TGI (LOX IMVI melanoma): 3.17 µM | GI50 (KM12 colon): 10.3 µM | TGI (KM12 colon): 24 µM | GI50 (NCI-H460 lung): 3.61 µM | TGI (NCI-H460 lung): 13.4 µM | GI50 (OVCAR-8 ovarian): 1910 nM | TGI (OVCAR-8 ovarian): 3.54 µM | GI50 (786-0 renal): 1810 nM | TGI (786-0 renal): 3.34 µM | GI50 (ACHN renal): 1710 nM | TGI (ACHN renal): 3.19 µM | GI50 (SF-539 CNS): 1720 nM | TGI (SF-539 CNS): 3.15 µM | GI50 (NCI-H23 lung): 1800 nM | TGI (NCI-H23 lung): 3.6 µM | GI50 (MOLT-4 leukemia): 2540 nM | TGI (MOLT-4 leukemia): 6.99 µM | GI50 (SF-268 CNS): 1660 nM | TGI (SF-268 CNS): 3.29 µM | GI50 (NCI-H522 lung): 1900 nM | TGI (NCI-H522 lung): 4.55 µM | GI50 (NCI-H322M lung): 1630 nM | TGI (NCI-H322M lung): 3.2 µM | GI50 (TK-10 renal): 1600 nM | TGI (TK-10 renal): 3.07 µM | GI50 (CCRF-CEM leukemia): 3.17 µM | TGI (CCRF-CEM leukemia): 9.89 µM | GI50 (NCI-H226 lung): 2200 nM | TGI (NCI-H226 lung): 5.51 µM | GI50 (PC-3 prostate): 2250 nM | TGI (PC-3 prostate): 4.6 µM | GI50 (HT29 colon): 2250 nM | TGI (HT29 colon): 4.77 µM | GI50 (UO-31 renal): 1430 nM | TGI (UO-31 renal): 2870 nM | GI50 (K-562 leukemia): 2620 nM | TGI (K-562 leukemia): 8.67 µM | GI50 (MDA-MB-231 breast): 1900 nM | TGI (MDA-MB-231 breast): 3.62 µM | GI50 (SN12C renal): 1870 nM | TGI (SN12C renal): 3.66 µM | GI50 (OVCAR-4 ovarian): 1640 nM | TGI (OVCAR-4 ovarian): 3.08 µM | GI50 (EKVX NSCLC): 1680 nM | TGI (EKVX NSCLC): 3.33 µM | GI50 (RPMI-8226 leukemia): 2360 nM | TGI (RPMI-8226 leukemia): 6.6 µM | GI50 (SK-MEL-2 melanoma): 2340 nM | TGI (SK-MEL-2 melanoma): 6.39 µM | GI50 (SNB-75 CNS): 1500 nM | TGI (SNB-75 CNS): 3.31 µM | GI50 (CAKI-1 renal): 1610 nM | TGI (CAKI-1 renal): 2970 nM
